The values that follow come from patent publication US20240376433A1, “STEM CELL INDUCTION INTO PRECHONDROCYTES AND DIFFERENTIATION INTO CHONDROCYTES BY CIPROFLOXACIN” (SMART CELL LAB CO., LTD., priority 2021, published 2024).

Each structure is given as a SMILES string.

For the data set, the system named is stem cells. To be noted: treated up to 6 μM, up to 166 hours, CCK-8 absorbance.

As for `O=C(O)c1cn(C2CC2)c2cc(N3CCNCC3)c(F)cc2c1=O` [ciprofloxacin], the cytotoxicity entry is “did not exhibit cytotoxicity”.
